Reference: US20100189719A1 (published 2010)

Amino acid sequences for entries named in this document (tags omitted). Chains listed by the source or under a name are the forms on record and can include a tag or linker.
UniProt P15692, other isoform, or with tags, fused parts or gaps: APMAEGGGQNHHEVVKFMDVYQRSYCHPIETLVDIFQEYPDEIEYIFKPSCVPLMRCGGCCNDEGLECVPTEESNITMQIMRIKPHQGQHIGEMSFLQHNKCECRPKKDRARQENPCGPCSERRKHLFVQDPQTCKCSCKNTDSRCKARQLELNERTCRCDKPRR

Target: human VEGF (hVEGF) (human, UniProt P15692 27-191)
Test: competition

IC50: 2.5 nM
B1: G6 Fab (Fab, V domains shown)
VH: EVQLVESGGGLVQPGGSLRLSCAASGFTISDYWIHWVRQAPGKGLEWVAGITPAGGYTYYADSVKGRFTISADTSKNTAYLQMNSLRAEDTAVYYCARFVFFLPYAMDYWGQGTLVTVSS
VL: DIQMTQSPSSLSASVGDRVTITCRASQDVSTAVAWYQQKPGKAPKLLIYSASFLYSGVPSRFSGSGSGTDFTLTISSLQPEDFATYYCQQSYTTPPTFGQGTKVEIKR
